How the values were obtained:
[1] = target: Histamine H1 receptor (Cavia porcellus) (UniProt P31389); experiment: Antagonist activity at histamine H1 receptor in guinea-pig ileum assessed as inhibition of histamine-induced contractions after 15 mins; assay type: functional
[2] = target: Muscarinic acetylcholine receptor M3 (Cavia porcellus) (UniProt Q8VH26)

Amino acid sequences for entries named in this document (tags omitted).
UniProt P31389, whole entry: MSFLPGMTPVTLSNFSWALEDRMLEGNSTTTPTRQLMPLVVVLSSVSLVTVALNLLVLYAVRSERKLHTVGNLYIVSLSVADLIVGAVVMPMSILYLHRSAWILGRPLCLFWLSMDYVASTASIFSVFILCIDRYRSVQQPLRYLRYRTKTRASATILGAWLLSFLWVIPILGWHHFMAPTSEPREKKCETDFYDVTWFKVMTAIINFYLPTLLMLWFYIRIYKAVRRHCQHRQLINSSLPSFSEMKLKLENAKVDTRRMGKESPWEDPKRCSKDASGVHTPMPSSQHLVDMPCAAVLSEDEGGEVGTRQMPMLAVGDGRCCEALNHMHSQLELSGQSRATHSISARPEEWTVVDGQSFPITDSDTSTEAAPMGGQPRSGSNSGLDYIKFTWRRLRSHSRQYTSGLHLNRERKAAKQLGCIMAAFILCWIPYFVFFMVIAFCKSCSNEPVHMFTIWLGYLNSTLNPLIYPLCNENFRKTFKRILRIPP

| Structure (SMILES) | inhibition [1] | pKb [1] | pKb [2] |
| --- | --- | --- | --- |
| c1ccc2c(OCCCCCN3CCCCC3)cccc2c1 | Dose-dependent effect | 5.91 | 5.78 |
| c1ccc2c(OCCCCCN3CCCCCC3)cccc2c1 | – | – | 6.39 |
